{"sequences": {"note": "Amino acid sequences for entries named in this document (tags omitted).", "UniProt Q01196, whole entry, looked up": "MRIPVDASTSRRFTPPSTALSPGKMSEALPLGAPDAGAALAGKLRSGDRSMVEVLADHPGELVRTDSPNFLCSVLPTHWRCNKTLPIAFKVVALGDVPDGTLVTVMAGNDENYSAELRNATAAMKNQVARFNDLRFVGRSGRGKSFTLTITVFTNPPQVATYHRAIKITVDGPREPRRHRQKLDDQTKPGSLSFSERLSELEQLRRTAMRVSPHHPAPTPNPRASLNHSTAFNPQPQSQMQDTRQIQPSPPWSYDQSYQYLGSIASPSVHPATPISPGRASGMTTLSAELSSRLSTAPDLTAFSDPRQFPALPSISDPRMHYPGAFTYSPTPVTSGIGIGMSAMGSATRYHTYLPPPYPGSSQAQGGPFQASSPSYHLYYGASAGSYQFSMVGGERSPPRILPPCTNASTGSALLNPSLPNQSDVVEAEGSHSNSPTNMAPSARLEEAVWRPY", "UniProt Q13951, whole entry, looked up": "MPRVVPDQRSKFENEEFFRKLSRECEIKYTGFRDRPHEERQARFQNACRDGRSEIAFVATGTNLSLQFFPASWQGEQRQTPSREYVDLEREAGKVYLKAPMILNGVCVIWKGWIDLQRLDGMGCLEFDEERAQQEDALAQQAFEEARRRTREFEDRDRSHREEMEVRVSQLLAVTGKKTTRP"}, "source": "PubChem BioAssay AID504375", "about": "(National Center for Advancing Translational Sciences (NCATS), 2011)", "note": "This is a selection; strong and weak results do not stand in their true shares. Records with an inconclusive call do not appear. The source made the active and inactive calls. Calls come from the whole dose curve; as a rule, active = well fitted inhibition curve with a large enough effect; inconclusive = small, poorly fitted or top-dose-only effect, or effect the other way; inactive = no such curve, though single readings can be large or run the other way. % is set by controls: 0 for no effect and ±100 for the full control effect.", "data": [{"target": "Runt-related transcription factor 1 (Homo sapiens) + Core-binding factor subunit beta (Homo sapiens) (UniProt Q01196+Q13951)", "assay": "qHTS Assay for Compounds Blocking the Interaction Between CBF-beta and RUNX1 for the Treatment of Acute Myeloid Leukemia: Hit Validation with Orthogonal Assay", "details": "CBFbeta-RUNX1 binding orthogonal assay, biochemical; at 41 µM (top of the series)", "values": [{"smiles": "O=[N+]([O-])c1ccc(OP2(=O)COCCO2)cc1", "note": "(stereo unspecified)", "activity change, negative = inhibition": "inactive: 20.1%"}]}]}
